Among the data in US8022207B2, “Compound having affinity to amyloid” (Nihon Medi-Physics Co., Ltd., priority 2006, dated 2011) are IC50 values, retold here.

Chains of the proteins cited; added tags and fusions are not shown. Residues count along the entry.
UniProt P05067, 672-711: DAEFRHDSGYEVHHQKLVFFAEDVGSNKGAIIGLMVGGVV

The assay concerns the target T1, amyloid (aggregated Aβ1-40) (Homo sapiens, UniProt P05067).
T1 construct: Aβ1-40 (Peptide Institute, INC.) was dissolved in phosphate buffer (pH 7.4); purchased Peptide Institute, INC
As to the kind of experiment: Measurement of amyloid affinity: in vitro binding test, inhibition of [^125I]3′-I-BTA-0 binding. The settings on record: 50% inhibition of [^125I]3′-I-BTA-0 (400 pmol/L) binding to amyloid 1 μmol/L; phosphate buffer pH 7.4, 22° C., 3 hours. Here is the method:
Affinity of the present compounds with amyloid was examined by the following in vitro binding tests.
(5) Samples in which [^125I]3′-I-BTA-0, each compound for evaluation and amyloid were dissolved in a 0.1% bovine serum albumin-containing phosphate buffer (pH 7.4) at final concentrations shown in Table 2 were prepared. The resulting samples were placed in each well (about 0.3 mL in volume) of a 96-well microplate.
(6) The microplate filled with the sample solutions was shaken at a given rate (400 rpm) at 22° C. for 3 hours.
(7) The glass fiber filter used for the filtration of each sample solution was washed with a 0.1% bovine serum albumin-containing phosphate buffer (pH 7.4) (0.5 mL×5), and radioactivity of the glass fiber filter was measured with an autowell gamma system (manufactured by Aloka, Type: ARC-301B).
(8) Separately, a solution containing 15 μmol/L of 6-Me-BTA-2, 400 pmol/L of [^125I]3′-I-BTA-0 and 1 μmol/L of Aβ1-40 in a 0.1% bovine serum albumin-containing phosphate buffer (pH 7.4) was prepared and subjected to the same procedures as described above in (6) and (7) to measure a radioactivity level. The measured radioactivity level was defined as the background radioactivity level, and used in the calculation of the inhibition ratio (hereinafter referred to as BG). […]

For the molecule `Cc1ccc2c(c1)sc(-c1ccc(N(C)C)cc1)[n+]2C` [Thioflavin T], the IC50 is > 1000 nM.
